These are literature values, as cited in patent US6624141B1, “Protamine fragment compositions and methods of use” (The Regents of The University of Michigan, priority 1999, dated 2003).

The conditions of the series: cited from earlier work.

As to insulin, the pKa entry is given as “about 4.5”.
